Test results from patent US11319310B2, “Heterocyclyl-substituted oxadiazolopyridine derivatives for use as ghrelin O-acyl transferase (GOAT) inhibitors” (Boehringer Ingelheim International GmbH, priority 2018, dated 2022).

Sequences of proteins named here, by UniProt entry; tags and fusion partners are left off.
UniProt Q96T53, whole entry: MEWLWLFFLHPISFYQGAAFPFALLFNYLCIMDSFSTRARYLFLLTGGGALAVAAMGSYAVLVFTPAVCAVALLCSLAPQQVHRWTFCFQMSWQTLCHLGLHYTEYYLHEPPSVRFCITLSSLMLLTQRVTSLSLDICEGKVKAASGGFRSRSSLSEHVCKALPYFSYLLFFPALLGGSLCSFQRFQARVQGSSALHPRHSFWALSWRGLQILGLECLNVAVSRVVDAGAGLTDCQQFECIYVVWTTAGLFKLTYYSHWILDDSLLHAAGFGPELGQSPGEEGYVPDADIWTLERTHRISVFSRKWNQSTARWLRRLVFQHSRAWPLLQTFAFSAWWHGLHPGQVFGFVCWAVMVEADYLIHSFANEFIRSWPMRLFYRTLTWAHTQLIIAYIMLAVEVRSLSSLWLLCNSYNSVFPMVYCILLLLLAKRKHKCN

Target: human GOAT (Homo sapiens, UniProt Q96T53)
Experiment: Determination of hGOAT activity in HEK293 cells after incubation with test compound (acyl-ghrelin ELISA)
Conditions: HEK293 cells stably transfected with preproghrelin and human GOAT; octanoate-BSA 100 μM, 5 hours incubation; acyl-ghrelin in medium by ELISA; 8 compound concentrations
Description: Determination of hGOAT Activity in HEK293 Cells after Incubation with Test Compound
HEK293 cells stably transfected with two expression vectors, one coding for preproghrelin cDNA and a second for the expression of human GOATcDNA are used as a cellular model. After feeding the cells with octanoic acid for 5 hours, acyl-ghrelin is measured in cell culture medium by an ELISA procedure.
Cellline: Hek293 hGOAT/PPGhrl Clone #1B8 Sodium octanoate, Sigma, Cat.-No. C5038 […]
Cells are plated with a density of 5000 cells/well in 384-well poly-D-lysin plates and incubated for 1 day at 37° C., 5% CO2 in DMEM medium, 10% FCS, 1×NEAA, Puromycin (0.5 μg/ml) and G418 (1 mg/ml). […] After incubation for 5 hours acylghrelin in the medium is measured by ELISA.
The medium sample is diluted 1:25 in Elisa buffer, a 25 μl aliquot is transferred to a 384-well ELISA plate previously washed 4 times with 100 μL wash buffer, and 25 μl tracer-solution is added. […] The absorbance is measured at 405 nm in an Envision multilabel reader and the amount of acylated ghrelin is calculated according to a acylated ghrelin standard curve provided in the same plate. […]
IC50 values are calculated with Assay Explorer or other suited software based on curve fitting of results of 8 different compound concentrations.

Cc1cc(OC2CCN(Cc3c(C)nc4nonc4c3N)C2)ccn1 (stereo not shown)
IC50: 1.2 nM
